Assay [1] is filed under the species Homo sapiens. Description: Selectivity ratio of Ki for human recombinant tau (243 to 375) to Ki for recombinant alpha-synuclein (unknown origin).
For assay [2], the species on record is Homo sapiens. Description: Selectivity ratio of Ki for amyloid beta (1 to 42) (unknown origin) to Ki for recombinant alpha-synuclein (unknown origin).

Each structure is given as a SMILES string.

`CN(C)c1ccc(/C=C/C=C2\C(=O)N(Cc3ccc([N+](=O)[O-])cc3)c3ccccc32)cc1` (mixture of isomers): the Ratio Ki in the assay filed under Homo sapiens [1] and in the assay filed under Homo sapiens [2] was 20 each time.

Source of the values: ChEMBL document CHEMBL3593202, “Design, Synthesis, and Characterization of 3-(Benzylidene)indolin-2-one Derivatives as Ligands for α-Synuclein Fibrils” (J Med Chem, 2015).
